Sequences of proteins named here, by UniProt entry; tags and fusion partners are left off.
UniProt P62937, whole entry: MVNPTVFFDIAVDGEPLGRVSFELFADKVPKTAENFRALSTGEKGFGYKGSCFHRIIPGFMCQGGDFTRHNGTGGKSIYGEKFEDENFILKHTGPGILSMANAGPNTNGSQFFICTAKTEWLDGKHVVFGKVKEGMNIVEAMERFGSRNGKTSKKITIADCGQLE

In patent publication US6593362B2, “Non-peptidic cyclophilin binding compounds and their use” (Guilford Pharmaceuticals Inc., priority 2001, dated 2003):

target: CyP A (Homo sapiens, UniProt P62937); assay: biochemical; details: not given
Method: A number of substrates for rotamase are known in the art or can be derived from those known. Typically, the substrate contacts a sample containing a protein with rotamase activity and the conversion of the substrate is detected after a period of time. The method for detecting conversion of the substrate will vary with the particular substrate chosen.
The following were added to a plastic cuvette: […] of ice cold assay buffer (25 mM HEPES, pH 7.8, 100 mM NaCl), 10 μL of CyP A (2.5 μM in 10 mM Tris-Cl pH 7.5, 100 mM NaCl, 1 mM dithiothreitol), 25 μL of chymotrypsin (50 mg/ml in 1 mM HCl), and 10 μL of test compound, at various concentrations, in dimethyl sulfoxide. The reaction was initiated by the addition of 5 μL of substrate (succinyl-Ala-Phe-Pro-Phe-para-nitroanilide, 5 mg/mL in 470 mM LiCl in trifluoroethanol). The absorbance at 390 nm versus time was monitored for 90 seconds using a spectrophotometer.
While CyP A is used in these examples, other CyP proteins can be substituted.

Going from `O=C(Nc1cc(Cl)cc(Cl)c1)c1cccc(C(=O)Nc2cc(Cl)cc(Cl)c2)c1` [Compound 14] to `O=C(NCC1CCCC(CNC(=O)Nc2cc(Cl)cc(Cl)c2)C1)Nc1cc(Cl)cc(Cl)c1` (centres unmarked) [Compound 25], the IC50 rises from 970 nM to 3250 nM (3.4-fold). The first is the more potent here.

First: O=C(Nc1cccc(NC(=O)N(c2ccccc2)c2ccccc2)c1)N(c1ccccc1)c1ccccc1 [Compound 22]
Second: O=C(Nc1ccccc1)Nc1cc(NC(=O)Nc2ccccc2)cc(C(F)(F)F)c1 [Compound 7]
The IC50 of the first is 4.3-fold higher: 8200 nM for the first, 1900 nM for the second. The second is the more potent here.

`O=C(NCc1cccc2ccccc12)c1cccc(NC(=O)c2cc(Cl)cc(Cl)c2)c1` [Compound 16, {3-[(3,5-dichlorophenyl)carbonylamino]phenyl}-N-(naphthylmethyl) formamide] and `CSc1ccc(Cl)cc1C(=O)Nc1cccc(NC(=O)c2cc(Cl)ccc2SC)c1` [Compound 6] are within 1.5-fold of each other in IC50: 1000 nM for the first, 1020 nM for the second.

`O=C(NCC1CCCC(CNC(=O)Nc2cc(Br)cc(Br)c2)C1)Nc1cc(Br)cc(Br)c1` (centres unmarked) [Compound 26] and `O=C(NCc1cccc(CNC(=O)Nc2ccc(Br)cc2Br)c1)Nc1ccc(Br)cc1Br` [Compound 31] are within 1.5-fold of each other in IC50: 5640 nM for the first, 3900 nM for the second.

same assay, conditions: read-out: % Inhibition at 10 μM

Going from `O=C(Nc1cccc2ccccc12)NC1CCCC(NC(=O)Nc2cccc3ccccc23)C1` (centres unmarked) [Compound 10] to `O=C(Nc1ccc(I)cc1)Nc1cc(NC(=O)Nc2ccc(I)cc2)c(Br)cc1Br` [Compound 3], the inhibition at 10 µM rises from 99% to 100%.

In the case of `O=C(Nc1cccc(NC(=O)Nc2cnccn2)c1)Nc1cnccn1` [Compound 33], the inhibition at 10 µM is reported as 2%.
